Results taken from the supplement of paper PMC11403291.

Chains of the proteins cited; added tags and fusions are not shown. Lines headed by an entry give the natural chain unless they say otherwise; changes in a name come on top.
UniProt Q9Y5S2: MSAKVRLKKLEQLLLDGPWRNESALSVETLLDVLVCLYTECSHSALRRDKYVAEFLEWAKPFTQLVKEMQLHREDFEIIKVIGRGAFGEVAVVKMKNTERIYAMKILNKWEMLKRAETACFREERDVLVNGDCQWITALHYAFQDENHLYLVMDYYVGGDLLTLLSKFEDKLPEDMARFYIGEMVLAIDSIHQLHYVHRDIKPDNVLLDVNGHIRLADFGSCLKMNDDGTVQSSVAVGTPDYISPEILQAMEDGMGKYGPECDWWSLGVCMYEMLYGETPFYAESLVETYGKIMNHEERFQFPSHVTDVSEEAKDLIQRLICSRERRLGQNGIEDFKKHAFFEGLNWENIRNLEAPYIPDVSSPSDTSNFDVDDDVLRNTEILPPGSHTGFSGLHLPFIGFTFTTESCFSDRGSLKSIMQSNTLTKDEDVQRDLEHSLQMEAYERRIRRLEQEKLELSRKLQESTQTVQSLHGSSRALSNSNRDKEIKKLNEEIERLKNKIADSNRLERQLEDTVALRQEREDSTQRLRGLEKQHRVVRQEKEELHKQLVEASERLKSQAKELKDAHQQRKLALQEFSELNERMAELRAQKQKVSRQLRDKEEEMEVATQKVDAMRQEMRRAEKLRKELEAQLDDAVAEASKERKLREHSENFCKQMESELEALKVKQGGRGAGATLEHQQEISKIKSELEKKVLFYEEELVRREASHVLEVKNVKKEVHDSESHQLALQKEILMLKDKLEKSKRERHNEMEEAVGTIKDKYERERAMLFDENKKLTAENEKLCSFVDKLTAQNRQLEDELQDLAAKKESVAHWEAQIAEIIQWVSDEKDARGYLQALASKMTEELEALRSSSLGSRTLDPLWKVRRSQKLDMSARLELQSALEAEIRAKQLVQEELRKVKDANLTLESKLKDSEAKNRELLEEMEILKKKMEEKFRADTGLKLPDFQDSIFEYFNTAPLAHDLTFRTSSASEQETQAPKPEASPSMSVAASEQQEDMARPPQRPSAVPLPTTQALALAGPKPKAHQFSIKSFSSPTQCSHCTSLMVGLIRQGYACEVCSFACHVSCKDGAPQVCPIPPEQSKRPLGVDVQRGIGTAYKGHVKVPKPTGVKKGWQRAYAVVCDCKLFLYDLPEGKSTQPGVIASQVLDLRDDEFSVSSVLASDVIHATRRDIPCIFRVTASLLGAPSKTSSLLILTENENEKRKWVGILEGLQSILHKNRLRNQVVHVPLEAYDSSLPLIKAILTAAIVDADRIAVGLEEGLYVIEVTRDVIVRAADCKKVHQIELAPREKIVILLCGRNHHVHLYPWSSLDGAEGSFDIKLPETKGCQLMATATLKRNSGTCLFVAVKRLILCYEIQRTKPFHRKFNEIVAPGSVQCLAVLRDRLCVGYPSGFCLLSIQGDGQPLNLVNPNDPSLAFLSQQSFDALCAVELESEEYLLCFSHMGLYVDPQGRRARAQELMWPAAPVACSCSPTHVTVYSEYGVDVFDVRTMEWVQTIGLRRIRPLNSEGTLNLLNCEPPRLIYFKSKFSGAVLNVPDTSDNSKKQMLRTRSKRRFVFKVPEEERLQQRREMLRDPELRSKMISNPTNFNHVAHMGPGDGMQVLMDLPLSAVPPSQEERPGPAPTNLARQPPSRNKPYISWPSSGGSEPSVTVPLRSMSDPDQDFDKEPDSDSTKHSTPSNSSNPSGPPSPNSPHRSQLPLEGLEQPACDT
UniProt Q13557, whole entry: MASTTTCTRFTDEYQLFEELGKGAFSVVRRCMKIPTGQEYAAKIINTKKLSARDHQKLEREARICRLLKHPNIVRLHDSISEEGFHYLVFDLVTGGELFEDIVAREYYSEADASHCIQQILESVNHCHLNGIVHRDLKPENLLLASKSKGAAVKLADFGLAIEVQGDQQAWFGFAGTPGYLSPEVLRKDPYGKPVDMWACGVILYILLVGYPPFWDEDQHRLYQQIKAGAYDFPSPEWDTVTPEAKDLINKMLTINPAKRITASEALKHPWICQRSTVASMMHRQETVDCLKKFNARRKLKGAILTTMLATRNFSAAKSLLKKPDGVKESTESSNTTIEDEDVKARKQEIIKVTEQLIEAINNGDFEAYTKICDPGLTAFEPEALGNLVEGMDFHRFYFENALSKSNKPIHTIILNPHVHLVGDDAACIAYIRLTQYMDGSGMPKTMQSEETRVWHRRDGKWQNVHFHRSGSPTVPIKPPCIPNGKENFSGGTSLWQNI
UniProt P11362, whole entry, looked up: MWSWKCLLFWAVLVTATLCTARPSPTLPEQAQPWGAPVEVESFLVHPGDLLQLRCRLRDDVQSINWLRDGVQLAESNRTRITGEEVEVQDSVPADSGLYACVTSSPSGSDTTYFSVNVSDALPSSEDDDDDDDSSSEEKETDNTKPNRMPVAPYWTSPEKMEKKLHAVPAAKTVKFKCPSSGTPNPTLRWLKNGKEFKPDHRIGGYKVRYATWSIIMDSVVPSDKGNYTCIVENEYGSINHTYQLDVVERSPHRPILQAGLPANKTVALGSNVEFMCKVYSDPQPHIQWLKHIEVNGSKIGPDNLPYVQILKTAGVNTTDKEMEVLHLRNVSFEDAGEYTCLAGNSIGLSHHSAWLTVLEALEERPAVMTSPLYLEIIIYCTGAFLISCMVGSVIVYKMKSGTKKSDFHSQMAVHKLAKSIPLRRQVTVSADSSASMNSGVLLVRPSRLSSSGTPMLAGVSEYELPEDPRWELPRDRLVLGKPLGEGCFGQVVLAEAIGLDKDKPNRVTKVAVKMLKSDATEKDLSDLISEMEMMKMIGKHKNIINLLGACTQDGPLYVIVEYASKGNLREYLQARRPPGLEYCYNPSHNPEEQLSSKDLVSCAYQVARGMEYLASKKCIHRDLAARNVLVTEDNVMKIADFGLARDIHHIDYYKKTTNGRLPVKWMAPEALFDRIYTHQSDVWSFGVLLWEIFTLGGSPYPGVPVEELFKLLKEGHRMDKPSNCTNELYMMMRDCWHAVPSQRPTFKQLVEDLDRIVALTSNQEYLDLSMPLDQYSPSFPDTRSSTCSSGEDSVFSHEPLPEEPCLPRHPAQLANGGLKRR
UniProt O75716, whole entry: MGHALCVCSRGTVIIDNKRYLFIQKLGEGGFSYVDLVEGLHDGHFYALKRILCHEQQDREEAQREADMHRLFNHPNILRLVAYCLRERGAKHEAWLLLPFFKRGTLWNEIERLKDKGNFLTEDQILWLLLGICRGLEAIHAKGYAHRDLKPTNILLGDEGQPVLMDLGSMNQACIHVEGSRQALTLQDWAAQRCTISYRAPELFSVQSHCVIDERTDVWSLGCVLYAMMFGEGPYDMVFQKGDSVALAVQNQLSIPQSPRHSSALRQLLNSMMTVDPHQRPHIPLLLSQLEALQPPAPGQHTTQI

Assays:
Experiment in all cases: apparent dissociation constant pKd app (kinobead competition) (-log10(M)); higher = stronger binding
MAPKAPK5 = target: T1, MAPKAPK5 (UniProt Q8IW41)
T1 sequence (whole entry): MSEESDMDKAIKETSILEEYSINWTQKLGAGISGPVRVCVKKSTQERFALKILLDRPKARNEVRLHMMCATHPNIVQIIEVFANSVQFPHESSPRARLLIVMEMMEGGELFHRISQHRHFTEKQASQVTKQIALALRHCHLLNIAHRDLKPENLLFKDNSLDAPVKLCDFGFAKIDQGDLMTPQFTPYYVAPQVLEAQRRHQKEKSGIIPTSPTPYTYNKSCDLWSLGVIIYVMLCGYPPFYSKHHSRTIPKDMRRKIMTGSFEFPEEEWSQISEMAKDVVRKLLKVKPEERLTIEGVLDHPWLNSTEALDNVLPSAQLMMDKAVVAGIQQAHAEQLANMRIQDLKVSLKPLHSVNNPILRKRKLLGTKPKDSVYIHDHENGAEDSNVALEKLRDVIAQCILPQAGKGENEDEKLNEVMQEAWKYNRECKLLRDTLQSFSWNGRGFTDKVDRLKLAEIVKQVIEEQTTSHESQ

IKBKE = target: T2, IKBKE (UniProt Q14164)
T2 sequence (whole entry): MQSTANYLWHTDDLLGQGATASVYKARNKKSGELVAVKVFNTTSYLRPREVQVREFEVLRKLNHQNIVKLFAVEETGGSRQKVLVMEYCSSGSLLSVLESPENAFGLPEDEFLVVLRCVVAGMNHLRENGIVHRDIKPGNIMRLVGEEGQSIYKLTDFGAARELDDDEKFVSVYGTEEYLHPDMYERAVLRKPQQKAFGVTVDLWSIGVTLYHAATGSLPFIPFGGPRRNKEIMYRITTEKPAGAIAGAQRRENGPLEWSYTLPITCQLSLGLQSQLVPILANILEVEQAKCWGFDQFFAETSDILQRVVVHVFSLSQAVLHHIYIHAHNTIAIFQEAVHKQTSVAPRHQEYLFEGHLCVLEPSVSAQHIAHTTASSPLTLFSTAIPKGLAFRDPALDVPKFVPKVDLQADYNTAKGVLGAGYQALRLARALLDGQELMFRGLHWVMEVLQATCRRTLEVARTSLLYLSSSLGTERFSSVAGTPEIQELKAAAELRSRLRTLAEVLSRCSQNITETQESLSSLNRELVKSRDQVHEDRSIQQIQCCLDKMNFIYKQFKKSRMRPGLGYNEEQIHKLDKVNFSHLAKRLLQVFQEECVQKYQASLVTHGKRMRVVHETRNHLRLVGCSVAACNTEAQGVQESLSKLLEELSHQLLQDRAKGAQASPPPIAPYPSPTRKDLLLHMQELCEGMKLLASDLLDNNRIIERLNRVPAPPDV

CDC42BPB = CDC42BPB (UniProt Q9Y5S2)
CAMK2D = CAMK2D (UniProt Q13557)
PRKD3 = target: T3, PRKD3 (UniProt O94806)
T3 sequence (whole entry): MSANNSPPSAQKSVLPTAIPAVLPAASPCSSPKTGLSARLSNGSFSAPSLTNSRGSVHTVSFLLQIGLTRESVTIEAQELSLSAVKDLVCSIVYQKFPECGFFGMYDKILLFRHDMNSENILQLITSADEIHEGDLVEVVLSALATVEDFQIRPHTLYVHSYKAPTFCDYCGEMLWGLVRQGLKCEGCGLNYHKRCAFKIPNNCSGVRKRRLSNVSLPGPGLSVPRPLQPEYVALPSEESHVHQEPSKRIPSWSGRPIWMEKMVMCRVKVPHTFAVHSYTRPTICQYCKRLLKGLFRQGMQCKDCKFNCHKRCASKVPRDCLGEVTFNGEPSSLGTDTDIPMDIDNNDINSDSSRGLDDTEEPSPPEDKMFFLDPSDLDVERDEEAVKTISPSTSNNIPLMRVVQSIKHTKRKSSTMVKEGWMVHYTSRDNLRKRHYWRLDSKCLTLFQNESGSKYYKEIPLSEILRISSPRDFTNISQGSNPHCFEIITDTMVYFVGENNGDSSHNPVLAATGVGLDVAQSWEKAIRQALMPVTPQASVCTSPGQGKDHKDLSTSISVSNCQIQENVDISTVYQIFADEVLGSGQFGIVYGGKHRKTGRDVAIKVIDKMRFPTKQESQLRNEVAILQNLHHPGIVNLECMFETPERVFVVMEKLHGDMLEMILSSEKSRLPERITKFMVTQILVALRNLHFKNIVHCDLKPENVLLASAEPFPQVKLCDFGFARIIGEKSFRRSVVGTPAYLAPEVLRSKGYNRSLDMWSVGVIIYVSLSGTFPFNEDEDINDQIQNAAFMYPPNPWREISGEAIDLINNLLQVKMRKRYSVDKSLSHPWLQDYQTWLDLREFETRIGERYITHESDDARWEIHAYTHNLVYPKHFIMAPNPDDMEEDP

FGFR1 = FGFR1 (UniProt P11362)
STK16 = STK16 (UniProt O75716)

| SMILES | apparent dissociation constant pKd app (-log10) (MAPKAPK5) | apparent dissociation constant pKd app (-log10) (IKBKE) | apparent dissociation constant pKd app (-log10) (CDC42BPB) | apparent dissociation constant pKd app (-log10) (CAMK2D) | apparent dissociation constant pKd app (-log10) (PRKD3) | apparent dissociation constant pKd app (-log10) (FGFR1) | apparent dissociation constant pKd app (-log10) (STK16) |
| --- | --- | --- | --- | --- | --- | --- | --- |
| NC(=O)c1cccc2cn(-c3ccc([C@@H]4CCCNC4)cc3)nc12 [Niraparib] | < 4.5 | < 4.6 | < 4.5 | < 5 | < 4.6 | < 4.6 | < 4.7 |
| O=C(c1cc(Cc2n[nH]c(=O)c3ccccc23)ccc1F)N1CCN(C(=O)C2CC2)CC1 [Olaparib] | < 4.5 | < 4.6 | < 4.5 | < 5 | < 4.6 | < 4.6 | < 4.7 |
| Cn1ncnc1[C@H]1c2n[nH]c(=O)c3cc(F)cc(c23)N[C@@H]1c1ccc(F)cc1 [Talazoparib] | < 4.5 | < 4.6 | < 4.5 | < 5 | < 4.6 | < 4.6 | < 4.7 |
